The source of these data is PubChem BioAssay (Tox21).

This is a selection; strong and weak results do not stand in their true shares. Records with an inconclusive call do not appear. Where a call stands in place of a potency, no number is given. Where a structure was tested more than once in an assay, its records may differ in their call. Calls of active or inactive are those of the source. Calls come from the whole dose curve; as a rule, active = well fitted inhibition curve with a large enough effect in the signal ratio in the repeat runs; inconclusive = weak or mixed curves, or effect the other way; inactive = flat fitted curve, though single readings scatter; the % refers to the signal ratio.
Potency is the fitted concentration of half-maximal effect.

A short description of the assay: qHTS assay for small molecule disruptors of the mitochondrial membrane potential (AID 720635). The following applies: HepG2 mitochondrial membrane potential, Mito-MPS dye ratio; series mostly up to 83.2 µM. The text has this:
U.S. Tox21 Program National Center for Advancing Translational Sciences [NCATS] NIH Chemical Genomics Center [NCGC] U.S. Environmental Protection Agency [EPA] National Institutes of Environmental Health Sciences [NIEHS] National Toxicology Program [NTP] U.S. Food and Drug Administration [FDA] Tox21 Assay Overview: Mitochondrial membrane potential (MMP), one of the parameters for mitochondrial function, is generated by mitochondrial electron transport chain that creates an electrochemical gradient by a series of redox reactions. This gradient drives the synthesis of ATP, a crucial molecule for various cellular processes. Measuring MMP in living cells is commonly used to assess the effect of chemicals on mitochondrial function. […] The dye accumulates in the mitochondria of healthy cells as aggregates, with red fluorescence. The mitochondrial potential collapses and the dye can no longer accumulate in the mitochondria and remains in the cytoplasm in monomers, with green fluorescence.
Tox21 Assay Protocol Summary: 2,000 HepG2 cells in 5 uL/well were dispensed into black, clear-bottom 1536-well plates using a Multidrop Combi (Thermo Scientific) dispenser. The assay plates were incubated overnight at 37C to allow cells to attach to the wells, followed by the transfer of 23 nL compound or DMSO vehicle by a pin tool (Kalypsys). The plates were incubated for 1 hr at 37C and 5% CO2, followed by the addition of 5 uL of 2X Mito-MPS dye (BD Biosciences) into each well using Flying Reagent Dispenser (Aurora Discovery) and then following 30 min incubation at 37C. Fluorescence intensity (490nm excitation and 535nm emission for monomers; and 540nm excitation and 590nm emissions for aggregates) was measured using an Envision plate reader.
For orientation: qHTS replaces the single test concentration by a dilution series.
Regarding `COP(=S)(Cl)OC`, the Potency result was “inactive”. Then `CN(C)CCS`, with “inactive”; and `CC(C)N(CCCl)C(C)C`, with “inactive”; and `OCCSCCO`, with “inactive”.

On to `CCOC(=O)Cl`, for which the Potency entry is “inactive”. Take `C/C1=C2N=C(/C=C3N=C(/C(C)=C4\[N-][C@@](C)([C@@H]5N=C1[C@](C)(CCC(=O)NC[C@@H](C)OP(=O)([O-])O[C@H]1[C@@H](O)[C@@H](n6cnc7cc(C)c(C)cc76)O[C@@H]1CO)[C@H]5CC(N)=O)[C@@](C)(CC(N)=O)[C@@H]4CCC(N)=O)[C@@](C)(CC(N)=O)[C@@H]\3CCC(N)=O)C(C)(C)[C@@H]/2CCC(N)=O.[C-]#N.[Co+3]`: the Potency result is “inactive”. Then `COP(C)(=O)OC`, with “inactive”; and `Cc1ccc([N+](=O)[O-])cc1[N+](=O)[O-]`, with active: 60.3 µM.

As to `Cc1cccc([N+](=O)[O-])c1[N+](=O)[O-]`, the Potency is active: 4.58 µM. The figure for `Nc1cc([N+](=O)[O-])cc([N+](=O)[O-])c1O` is active: 2.79 µM; for `O=[N+]([O-])OCC(CO[N+](=O)[O-])(CO[N+](=O)[O-])CO[N+](=O)[O-]` it is “inactive”; for `[NH4+].[O-][Cl+3]([O-])([O-])[O-]` it is “inactive”.
